According to patent US7105575B2, “Methods for the treatment of neuro- disorders using aminothiol compounds” (Medimmune Oncology Inc., priority 1997, dated 2006):

Assays:
cells = conditions: compounds incubated with cells one hour after cisplatin exposure; cited from earlier work
DNA of salmon sperm = conditions: compounds present concomitantly with cisplatin, in vitro; cited from earlier work
[1] = system: V79-B310H Chinese hamster cells; conditions: cited from earlier work
cisplatin nephrotoxicity = conditions: amifostine given 30 minutes after cisplatin; cited from earlier work
[2] = system: cisplatin-induced renal failure; test: Example 1 case study: amifostine given after cisplatin-induced renal failure; conditions: for overall clinical status (in words) / renal function (in words): amifostine 400 mg iv for 3 days; for renal function (in words): started after renal failure had developed
cisplatin neuropathy = conditions: cited from earlier work
[3] = system: paclitaxel neuropathies and arthralgias/myalgias; conditions: pretreatment with amifostine, escalating doses of paclitaxel; cited from earlier work
[4] = system: neurotoxicities / neuropathy
[5] = system: severe neurotoxicities of right arm, leg pain; test: Example 2 case study: amifostine for chemotherapy-induced neurotoxicities (carboplatinum, vinblastine, methotrexate); assay type: in vivo, human
Text: The patient who is a survivor of the concentration camps of World War II, was diagnosed with bladder cancer that had metastized to the lungs. They received 3 cycles carboplatinum, vinblastine and methotrexate. While in the concentration camp, the patient suffered damage to their lower legs which caused them constant pain.

neurotoxicities = test: Example 4 case study: amifostine in MDS patient with neurotoxicities from CHOP chemotherapy; assay type: in vivo, human
[6] = cited from earlier work
[7] = 500 mg amifostine over 10 minutes
[8] = paclitaxel 135 mg/m^2 iv day 1, cisplatin 100 mg/m^2 intraperitoneally day 2, before amifostine

Compound: NCCCNCCS [WR-1065, S-2-(3-aminopropylamino) ethanethiol]
- protection from cytostatic effect of cisplatin (cells): neither WR-1065 nor WR-2721 (amifostine) could protect cells
- platination of salmon sperm DNA, co-incubation (DNA of salmon sperm): caused a decrease in the platination
- protection against cis-DDP cytotoxicity ([1]; administered before, during and immediately after cisplatin treatment): protects against cytotoxicity
- protection during versus immediately following cisplatin exposure [1]: little if any difference in the magnitude of protection
- timing of maximum protection ([1]; presence in cell growth medium relative to cisplatin exposure): maximum protection was obtained when WR-1065 was present in the cell growth medium for 30 minutes prior to exposure

Compound: NCCCNCCSSCCNCCCN [WR-33278]
- platination of salmon sperm DNA, co-incubation (DNA of salmon sperm): caused a decrease in the platination

Compound: NCCCNCCSP(=O)(O)O [amifostine, S-2-(3-aminopropylamino)ethyl dihydrogen phosphorothioate]
- protection from nephrotoxicity (cisplatin nephrotoxicity): did not protect mice at all from nephrotoxicity
- serum creatinine level following treatment with amifostine (FIG. 1) ([2]; FIG. 1, start about 1.0, maximum about 5.5 mg/dL after cisplatin): about 2.8 mg/dL
- creatinine at further amifostine dose after follow-up clinic visit ([2]; about 8 days after second discharge, when amifostine 400 mg iv was given again): 2.5 mg/dL
- serum creatinine by hospital day 12 / discharge day 13 ([2]; after 3 days of amifostine 400 mg iv, peak 6.0 mg/dL before amifostine): 2.8 mg/dL
- serum creatinine approximately 6 months later ([2]; after final 2-week course of amifostine 400 mg, 5 doses): 2.0 mg/dL
- overall clinical status (in words) [2]: improvement in their overall clinical status
- renal function (in words) [2]: partial recovery of their renal function
- renal function (in words) ([2]; listed as Amifostine): partially reversed the toxic renal effects of cisplatin
- overall clinical status (in words) ([2]; listed as Amifostine): overall clinical status improved
- tolerability ([2]; amifostine 400 mg per day iv on post-cisplatin days 7, 8, 9): tolerated therapy well, with only mild nausea
- serum creatinine on day 3 of amifostine therapy ([2]; patient, amifostine 400 mg per day iv on post-cisplatin days 7, 8, 9, peak 6.0 mg/dL before amifostine): 4.6 mg/dL
- renal function during readmission (in words) ([2]; readmission, 5 days, amifostine 400 mg iv on hospital day 2): renal function stabilized
- tolerability ([2]; readmission, amifostine 400 mg iv once on hospital day 2, ondansetron 24 mg as needed): tolerated the treatment well
- incidence of cisplatin neuropathies (cisplatin neuropathy; pretreatment with amifostine, prospective evaluation (Mollman 1988)): significantly lower incidence of cisplatin neuropathies
- occurrence and severity of cisplatin neuropathy (cisplatin neuropathy; pretreatment, randomized trial cisplatin and cyclophosphamide±amifostine, advanced ovarian cancer (Kemp 1996)): significantly reduce the occurrence and severity of cisplatin neuropathy
- protection from cytostatic effect of cisplatin (cells): neither WR-1065 nor WR-2721 (amifostine) could protect cells
- tolerated paclitaxel dose [3]: allowed both higher single doses and cumulative doses of paclitaxel to be administered without the occurrence of dose limiting neuropathies and arthralgias/myalgias
- platination of salmon sperm DNA, co-incubation (DNA of salmon sperm): caused a decrease in the platination
- neuropathy one month after termination ([4]; after four amifostine treatments): neuropathy remained stable
- tolerability of first infusion ([4]; person, amifostine 970 mg in 50 cc saline over 10 minutes, premedicated with Zofran and Decadron): tolerated this treatment without problems
- leg pain two days after infusion [5, 7]: the pain in their legs was getting better
- walking ability two days after infusion [5, 7]: able to walk without their cane
- pain reported two days after infusion ([5]; person, 500 mg amifostine in 50 cc saline over 10 minutes): no pain for the first time in months
- arm pain after subsequent infusions ([5]; subsequent Ethyol infusions): remained without arm pain
- leg pain after subsequent infusions ([5]; subsequent Ethyol infusions): The pain in their legs has improved
- analgesic need (Duragesic patches) ([5]; subsequent Ethyol infusions, before: 2 patches of 100 mcg/hr): managing with only one Duragesic Patch
- general status on continued treatment (neurotoxicities; continues on Ethyol for MDS): doing well
- neurotoxicities, patient statement after five weeks (neurotoxicities; person, Ethyol 840 mg Monday, Wednesday, Friday each week, neurotoxicities for eight years after CHOP): neurotoxicities were better since receiving amifostine

Compound: N.N.[Cl][Pt][Cl] [cisplatin, cis-diamminedichloroplatinum]
- maximum serum creatinine level after administration of cisplatin (FIG. 1) ([2]; FIG. 1, starting level about 1.0 mg/dL): about 5.5 mg/dL
- BUN by hospital day 5 after chemotherapy [2, 8]: 39 mg/dL
- serum creatinine by hospital day 5 after chemotherapy [2, 8]: 4.9 mg/dL
- potential permanent loss of normal renal function ([6]; nephrotoxicity produced by drugs such as cisplatin (Kemp 1996)): ≥ 50%
- patients with myelosuppression ([6]; patients treated with cisplatin): 25–30%
